Key:
[1] = test system: STAT3 mutants (WT, D661Y, D661V, Y640F, K392R); experiment: Flag-STAT3 levels of STAT3 mutants ectopically overexpressed in HEK293 cells; conditions: 3 μM, 24 hr, tested form: diammonium
Method: FIG. 11 depicts degradation results of the reduction of STAT3 in STAT3 mutants using I-83 (3 μM, 24 hr) in ectopically overexpressed HEK293 cells showing Flag-STAT3 levels (% DMSO)(y-axis) for WT, D661Y (SH2), D661V (SH2), Y640F (SH2), and K392R (DBD) mutants (x-axis).

Chains of the proteins cited; added tags and fusions are not shown. Lines headed by an entry give the natural chain unless they say otherwise; changes in a name come on top. Residues count along the entry.
UniProt P40763, whole entry: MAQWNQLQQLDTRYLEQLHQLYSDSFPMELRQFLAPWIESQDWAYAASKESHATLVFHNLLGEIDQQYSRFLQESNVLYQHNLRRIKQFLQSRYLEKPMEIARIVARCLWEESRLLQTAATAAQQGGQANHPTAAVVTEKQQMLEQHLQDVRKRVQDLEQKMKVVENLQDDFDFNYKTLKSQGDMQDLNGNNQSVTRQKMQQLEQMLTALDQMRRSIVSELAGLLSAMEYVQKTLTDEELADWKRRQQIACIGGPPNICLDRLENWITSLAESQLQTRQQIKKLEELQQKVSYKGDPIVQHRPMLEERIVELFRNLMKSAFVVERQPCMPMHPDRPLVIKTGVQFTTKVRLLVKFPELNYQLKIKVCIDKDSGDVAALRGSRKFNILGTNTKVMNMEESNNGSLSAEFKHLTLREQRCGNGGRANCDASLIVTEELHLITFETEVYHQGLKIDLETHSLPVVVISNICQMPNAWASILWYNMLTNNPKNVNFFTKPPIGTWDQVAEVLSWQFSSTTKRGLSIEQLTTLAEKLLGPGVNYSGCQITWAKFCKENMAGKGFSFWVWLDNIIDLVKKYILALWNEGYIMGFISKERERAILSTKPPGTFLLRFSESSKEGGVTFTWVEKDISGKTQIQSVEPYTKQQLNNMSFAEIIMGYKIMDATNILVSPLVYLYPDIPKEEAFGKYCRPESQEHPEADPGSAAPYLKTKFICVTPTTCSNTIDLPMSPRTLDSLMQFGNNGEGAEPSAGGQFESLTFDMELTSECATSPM
UniProt P40763, whole entry D661Y: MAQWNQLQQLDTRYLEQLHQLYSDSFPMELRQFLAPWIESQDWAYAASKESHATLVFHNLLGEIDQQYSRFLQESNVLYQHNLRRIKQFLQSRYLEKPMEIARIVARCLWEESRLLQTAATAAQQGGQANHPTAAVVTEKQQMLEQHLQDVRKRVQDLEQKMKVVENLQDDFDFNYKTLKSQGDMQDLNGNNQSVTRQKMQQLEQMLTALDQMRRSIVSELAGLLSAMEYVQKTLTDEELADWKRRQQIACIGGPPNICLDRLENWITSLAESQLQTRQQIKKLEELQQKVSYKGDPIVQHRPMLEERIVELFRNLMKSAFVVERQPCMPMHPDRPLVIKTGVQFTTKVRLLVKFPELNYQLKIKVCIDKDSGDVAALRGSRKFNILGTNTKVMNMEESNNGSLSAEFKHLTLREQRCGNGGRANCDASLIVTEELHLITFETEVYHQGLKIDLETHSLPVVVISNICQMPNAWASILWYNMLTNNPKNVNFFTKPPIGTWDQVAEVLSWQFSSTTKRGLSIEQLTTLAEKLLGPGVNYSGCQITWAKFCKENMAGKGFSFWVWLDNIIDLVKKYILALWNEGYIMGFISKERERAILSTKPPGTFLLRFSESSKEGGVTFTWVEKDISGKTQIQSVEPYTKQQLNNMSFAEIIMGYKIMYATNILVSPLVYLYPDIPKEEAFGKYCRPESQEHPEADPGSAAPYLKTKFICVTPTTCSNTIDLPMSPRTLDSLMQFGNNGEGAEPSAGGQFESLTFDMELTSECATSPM
UniProt P40763, 2-770 D661Y limits assumed: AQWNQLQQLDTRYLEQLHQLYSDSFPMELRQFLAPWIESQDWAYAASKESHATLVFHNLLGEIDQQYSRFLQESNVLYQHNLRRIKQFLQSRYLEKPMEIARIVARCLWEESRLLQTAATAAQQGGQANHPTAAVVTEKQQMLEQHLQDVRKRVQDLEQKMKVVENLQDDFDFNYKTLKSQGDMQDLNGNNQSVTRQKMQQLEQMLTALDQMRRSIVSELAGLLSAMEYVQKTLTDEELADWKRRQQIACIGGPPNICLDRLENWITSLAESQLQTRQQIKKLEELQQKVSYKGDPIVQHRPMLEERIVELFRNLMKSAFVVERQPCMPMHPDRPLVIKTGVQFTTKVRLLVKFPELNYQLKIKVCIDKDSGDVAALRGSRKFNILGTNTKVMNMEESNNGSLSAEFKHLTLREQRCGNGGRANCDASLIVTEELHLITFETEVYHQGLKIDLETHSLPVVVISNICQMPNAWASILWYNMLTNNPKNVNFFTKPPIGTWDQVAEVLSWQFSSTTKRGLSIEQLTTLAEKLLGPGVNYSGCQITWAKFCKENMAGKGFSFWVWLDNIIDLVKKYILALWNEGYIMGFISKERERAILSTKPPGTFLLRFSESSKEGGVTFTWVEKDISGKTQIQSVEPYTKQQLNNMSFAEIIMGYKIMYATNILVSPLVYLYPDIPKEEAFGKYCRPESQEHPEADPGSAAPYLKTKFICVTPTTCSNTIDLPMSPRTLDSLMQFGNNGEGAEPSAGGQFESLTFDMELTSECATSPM

[2] = target: mutant STAT3 (STAT D661Y) (Homo sapiens, UniProt P40763, D661Y); experiment: degradation of mutant STAT3 in HDLM-2 cell lines, dose response; conditions: dose response curve, tested form: diammonium
Source text: FIG. 9 depicts a dose response curve showing I-111 degrading mutant STAT3 (STAT D661Y) in HDLM-2 cell lines.
FIG. 12 depicts a dose response curve showing I-83 degrading mutant STAT3 (STAT D661Y) in HDLM-2 cell lines.

[3] = target: T1, STAT3 (Homo sapiens, UniProt P40763); experiment: Quantitation of STAT3 degradation in A549 cells by Western blot; assay type: cell-based; conditions: read-out: A549 DC50, 24 hours, tested up to 30 μM or 10 μM, tested form: diammonium
Method: Degradation of total cellular STAT3 protein in A549 was quantitatively measured using SDS-PAGE and Western blot analysis. A549 cells (5×10^5 cells/well, 2 mL) were seeded into 6-well plates and were incubated in the incubator under 5% CO2 overnight to reach ˜80% confluency. The next day, the culture medium was changed with 1 ml fresh media. Then, 1 mL of media containing 2× compound solution was added into the well to make the final concentration of 30 μM, 10 μM, 3 μM, 1 μM, 0.3 μM and 0 μM (DMSO). The media was thoroughly mixed and incubated for 24 hours at 37° C. under 5% CO2. Then, the culture media was removed from the assay plates and the cells were washed with ice-cold PBS twice. To prepare cell lysates, 200 ul pre-chilled RIPA lysis buffer (Boston BioProducts BP-115D) with protease/phosphatase inhibitor (Roche 05892791001/Roche 04906837001) was added directly into the well to lyse the cells for 20 minutes on ice. The cell lysates were then transferred to centrifuge tubes. Insoluble part of lysates was removed by centrifuging the lysates at 13000 rpm for 20 minutes. The supernatant was then collected and mixed with 5× loading buffer (Beyotime Bio P0015) to make the final samples for SDS-PAGE analysis. The samples were heated at 100° C. for 10 minutes and cool to room temperature before centrifuging at 13000 rpm for 20 minutes. To analyze the samples by SDS-PAGE, 10 ul samples were loaded onto SDS-PAGE gel (Novex, WG1403BOX) and the SDS-PAGE gel was run for 20 minutes at 80 V, then at 120 V for 1.5 hours. The SDS-PAGE gel was then transferred to nitrocellulose membrane using the wet-transfer method at 250 mA for 1.5 hours. The membrane was then blocked with LI-COR blocking buffer (LI-COR, 927-50000) for 1 hour and was probed with primary antibody (mouse anti-STAT3 (124H6) (CST #91395) 1:2000 or mouse anti-beta-Actin (8H10D10) (CST #3700) 1:10000) at 4° C. overnight. The membrane was then washed three times with TBST buffer and probed with secondary antibody (anti-mouse IgG (LI-COR, 926-68070), 1:5000) for 1 hour at room temperature. The membrane was then scanned on a LI-COR Odyssey instrument and was quantified using Image Studio Version 5.2. Concentration at 50% degradation (DC50) was calculated by fitting dose dependent degradation data using a sigmoidal equation using GraphPad Prism Version 8.0.

[4] = target: mutant STAT3 (Homo sapiens, UniProt P40763, D661Y); experiment: STAT3 MSD assay, mutant STAT3 cell lines; assay type: cell-based; conditions: mutant STAT3 heme cell lines, FIG. 12; tested form: diammonium
Method: (§1) 100 nl of compounds were added into the intermediate plate with Echo (Labcyte 550) from source plate containing a 3-fold serial dilution from top concentration of 1 mM. Cells were seeded into 96-well plates (4×10^4 cells/well/100 ul media), mixed well, and incubated for 24 hours. The media was aspirated from the cultures and 60 μL pre-chilled PIPA lysis buffer (Boston BioProducts BP-115D) with protease/phosphatase inhibitor (Roche 05892791001/Roche 04906837001) was added into the well to lyze the cells for 20 minutes at 4° C. The MSD plate (L15XA) was coated with 2 ug/ml capture antibody (ab119352) in PBS and incubated at 4° C. overnight. The next day, the plate was washed three times with TBST (CST #99975), 150 μL/well. MSD plates were blocked with 150 μL blocking buffer per well and shaken for 1 hr at RT and 600 rpm. The blocking buffer was 3% Blocker A (MSD, R93BA-4) in TBST. The MSD plate was washed three times with 150 μL/well of TBST and 70 μL cell lysate was added into the well and shaken for 1 hour at RT and 600 rpm. […] The MSD plate washed three times with 150 μL/well of TBST and added 150 μL/well of 2×MSD reading buffer diluted from 4× (MSD, R92TC-2) with water. Lastly the MSD instrument was read.

[5] = test system: mutant STAT3; experiment: STAT3 MSD assay, mutant STAT3 cell lines; assay type: cell-based; conditions: mutant STAT3 HEK293 cell lines, FIG. 11; tested form: diammonium
Method: as §1

[6] = target: T1, STAT3; experiment: Live cell degradation kinetics in A549 HiBiT cells; conditions: FIG. 3A, FIG. 21
Method: 700,000 A549 HiBiT cells were seeded in 60 mm dish and rested overnight at 37° C. Cells were transfected with LgBiT vector comprising 6.5 μg plasmid DNA+19.5 μL FuGENE HD transfection reagent per 60 mm dish (scale up/down as necessary). Following 24 h post transfection, cells were trypsinized and seeded at 2,000 cells/well in 40 μL in a 384-well plate. Cells were not seeded in the 2 outermost columns/rows to avoid evaporation. Outer wells were filled with PBS. After allowing the cells to settle overnight, Endurazine 1:100 was added to the cells by first diluting 1:10 in media and further diluting 1:10 in 40 μL of cells by adding ˜4.4 μL of diluted Endurazine in plate #1. Cells were incubated at 37° C. for 2.5 h. Compound was added with Tecan HPd300 dispenser (final DMSO=0.1%) to both plates (10 point, 1:3 dilution; 30 μM top dose). Plate #1 luminescence was read at t=0, 30 min, 1h, 2h, 4h, 6h, 8h, 16h, 24 h, 48h. Plate was returned to incubator between reads.

[7] = target: T1, STAT3; experiment: STAT3 MSD assay; assay type: cell-based; conditions: for DC50: read-out: STAT3 MSD DC50
Method: 100 nl of compounds were added into the intermediate plate with Echo (Labcyte 550) from source plate containing a 3-fold serial dilution from top concentration of 1 mM. Cells were seeded into 96-well plates (4×10^4 cells/well/100 ul media), mixed well, and incubated for 24 hours. The media was aspirated from the cultures and 60 μL pre-chilled PIPA lysis buffer (Boston BioProducts BP-115D) with protease/phosphatase inhibitor (Roche 05892791001/Roche 04906837001) was added into the well to lyze the cells for 20 minutes at 4° C. The MSD plate (L15XA) was coated with 2 ug/ml capture antibody (ab119352) in PBS and incubated at 4° C. overnight. The next day, the plate was washed three times with TBST (CST #99975), 150 μL/well. MSD plates were blocked with 150 μL blocking buffer per well and shaken for 1 hr at RT and 600 rpm. The blocking buffer was 3% Blocker A (MSD, R93BA-4) in TBST. The MSD plate was washed three times with 150 μL/well of TBST and 70 μL cell lysate was added into the well and shaken for 1 hour at RT and 600 rpm. The MSD plate was washed three times with 150 μL/well of TBST and added 25 μL/well of detection antibody (ab68153) to a final concentration of 1 μg/ml diluted in 1% blocking buffer and shaken for 1 hour at RT and 600 rpm. MSD plate was washed three times with 150 μL/well of TBST and added 25 μL/well of SULFO-TAG anti-rabbit antibody (MSD, R32AB-1) to a final concentration of 1 μg/mL diluted in 1% blocking buffer and shaken for 1 hour at RT and 600 rpm. The MSD plate washed three times with 150 μL/well of TBST and added 150 μL/well of 2×MSD reading buffer diluted from 4× (MSD, R92TC-2) with water. Lastly the MSD instrument was read.

SMILES	Flag-STAT3 levels in STAT3 mutants [1]	degradation of mutant STAT3 (STAT D661Y) [2]	DC50 [3] [µM]	degradation of mutant STAT3 [4]	degradation of mutant STAT3 [5]	degradation of STAT3, live cell kinetics [6]	STAT3 MSD % Amax ([7]; DEL, 24 hr) [%]	STAT3 MSD % Amax ([7]; KI-JK, 24 hr) [%]	STAT3 MSD % Amax ([7]; SU-DHL-1, 24 hr) [%]	STAT3 MSD % Amax ([7]; SUP-M2, 24 hr) [%]	DC50 ([7]; DEL, 24 hr) [µM]	DC50 ([7]; KI-JK, 24 hr) [µM]	DC50 ([7]; SU-DHL-1, 24 hr) [µM]	DC50 ([7]; SUP-M2, 24 hr) [µM]
Cc1ncsc1-c1ccc(CNC(=O)[C@@H]2C[C@@H](O)CN2C(=O)[C@@H](NC(=O)CCCCc2ccc(CO[C@H](C)[C@H](CCC(N)=O)NC(=O)[C@@H]3Cc4cccc5c4N3C(=O)[C@@H](NC(=O)c3cc4cc(C(=O)P(=O)(O)O)ccc4[nH]3)CC5)cc2)C(C)(C)C)cc1	reduction of STAT3	degrading mutant STAT3	< 30	degrades mutant STAT3 heme cell lines	degrades mutant STAT3 HEK293 cell lines	–	–	–	–	–	–	–	–	–
Cn1c(=O)n(C2CCC(=O)NC2=O)c2ccc(C[C@H]3CC[C@@H](CC(=O)N4CC[C@H]5CC[C@@H](C(=O)N[C@@H](CCC(N)=O)C(=O)NC(c6ccccc6)c6ccccc6)N5C(=O)[C@@H](NC(=O)c5cc6cc(C(=O)P(=O)(O)O)ccc6[nH]5)C4)CC3)cc21 (stereo partly drawn) [Compound I-174, 2-[[(5S,8S,10aR)-8-[[(1S)-3-carbamoyl-1-(diphenylmethylcarbamoyl)propyl]carbamoyl]-6-oxo-3-[2-[(1s,4s)-4-[[1-(2,6-dioxopiperidin-3-yl)-3-methyl-2-oxo-1,3-benzodiazol-5-yl]methyl]cyclohexyl]acetyl]-octahydropyrrolo[1,2-a][1,5]diazocin-5-yl]carbamoyl]-1H-indole-5-carbonylphosphonic acid]	–	–	–	–	–	rapid and potent degradation of STAT3	95	97	> 95	95	0.016	0.047	0.015	0.086
